Yeast mating assay 2: variants of the scFv Ab-91

Reference: Engelhart et al. 2022, doi:10.1038/s41597-022-01779-4. File: FLAb, binding data.

The target is the same throughout: PDVDLGDISGINAS, from the HR2 region of SARS-CoV-2 spike.

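The parent was found by panning a naive human phage display library on the peptide. AAYL51 was designed without a model: most single CDR substitutions and a random sample of double and triple ones. AlphaSeq pools MATa yeast showing the antibodies with MATalpha yeast showing the peptide. After mating in shaken culture at 30 °C for 16 h, diploids were selected and their barcode pairs sequenced. Scores were corrected for input abundance and mapped to Kd with protein pairs of known affinity run in the same pool. The assay was run in three technical replicates.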

Each scFv is VL, three GGGGS repeats, VH, as in the parent Ab-91, and differs from it in the CDRs of the heavy chain only.
VL: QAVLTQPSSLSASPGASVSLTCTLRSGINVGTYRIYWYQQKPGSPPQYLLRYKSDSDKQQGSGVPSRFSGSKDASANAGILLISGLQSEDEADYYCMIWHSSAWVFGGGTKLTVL
VH: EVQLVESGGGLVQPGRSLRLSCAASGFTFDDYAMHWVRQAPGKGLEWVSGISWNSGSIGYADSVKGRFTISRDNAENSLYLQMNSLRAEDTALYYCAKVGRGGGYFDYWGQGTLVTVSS

Positions count from residue 1 of the parent VH; G26R puts R in place of G. Values are log10 of the apparent Kd in nM; lower means stronger binding. A mean of the replicates is given; it leaves out those without a signal. "nd" means that the variant was in the library but no mating with the target was seen in any replicate; the authors take this as a sign of poor binding, and no number exists. Empty control strains, which show no peptide, gave a signal in 21% of pairings with library AAYL51; the median was 4.54 and 95% of these signals were weaker than 3.26. No background was subtracted. For each scFv, signals with the empty controls are counted beside the result. Parent in this assay: reference entry 1.86, copy in this library 0.88.

{"changes": "G26R/K65E/G104S", "mean, log10 nM": "1.17", "replicates with signal": "3 of 3", "empty controls": "3 of 9"}
{"changes": "F29G/D31A/D107S", "mean, log10 nM": "nd", "replicates with signal": "0 of 3", "empty controls": "0 of 9"}
{"changes": "H35Y/S52R/D107T", "mean, log10 nM": "nd", "replicates with signal": "0 of 3", "empty controls": "0 of 9"}
{"changes": "D30Y/V99R", "mean, log10 nM": "nd", "replicates with signal": "0 of 3", "empty controls": "0 of 9"}
{"changes": "F27P/A33H/G59Y", "mean, log10 nM": "nd", "replicates with signal": "0 of 3", "empty controls": "0 of 9"}
{"changes": "T28N/Y32E/G103D", "mean, log10 nM": "4.02", "replicates with signal": "3 of 3", "empty controls": "1 of 9"}
{"changes": "G26T/S55N/G100M", "mean, log10 nM": "3.51", "replicates with signal": "1 of 3", "empty controls": "0 of 9"}
{"changes": "H35N/W53P/D62E", "mean, log10 nM": "3.98", "replicates with signal": "3 of 3", "empty controls": "4 of 9"}
{"changes": "G26Y/T28C/D62E", "mean, log10 nM": "3.84", "replicates with signal": "2 of 3", "empty controls": "0 of 9"}
{"changes": "D30Q/G56A", "mean, log10 nM": "1.14", "replicates with signal": "3 of 3", "empty controls": "0 of 9"}
{"changes": "G50C/K65F/G102I", "mean, log10 nM": "nd", "replicates with signal": "0 of 3", "empty controls": "3 of 9"}
{"changes": "S55G/S57K/F106W", "mean, log10 nM": "4.47", "replicates with signal": "1 of 3", "empty controls": "2 of 9"}
{"changes": "F27T/A61K/S63E", "mean, log10 nM": "4.90", "replicates with signal": "2 of 3", "empty controls": "3 of 9"}
{"changes": "W53R/S55Y/R101H", "mean, log10 nM": "4.75", "replicates with signal": "2 of 3", "empty controls": "5 of 9"}
{"changes": "Y32N/G59P/A61H", "mean, log10 nM": "nd", "replicates with signal": "0 of 3", "empty controls": "0 of 9"}
{"changes": "G26D/S55V/G104P", "mean, log10 nM": "4.40", "replicates with signal": "1 of 3", "empty controls": "2 of 9"}
{"changes": "N54Q/Y105I/F106L", "mean, log10 nM": "4.72", "replicates with signal": "2 of 3", "empty controls": "2 of 9"}
{"changes": "D31A/S63H/R101S", "mean, log10 nM": "1.90", "replicates with signal": "3 of 3", "empty controls": "3 of 9"}
{"changes": "F27W/H35Y/Y108D", "mean, log10 nM": "4.40", "replicates with signal": "1 of 3", "empty controls": "1 of 9"}
{"changes": "F29A/Y108N", "mean, log10 nM": "5.00", "replicates with signal": "2 of 3", "empty controls": "2 of 9"}
{"changes": "D31R/S57N", "mean, log10 nM": "0.68", "replicates with signal": "3 of 3", "empty controls": "6 of 9"}
{"changes": "F27P/I51H/G104T", "mean, log10 nM": "nd", "replicates with signal": "0 of 3", "empty controls": "1 of 9"}
{"changes": "D31H/I58H/G103Y", "mean, log10 nM": "nd", "replicates with signal": "0 of 3", "empty controls": "1 of 9"}
{"changes": "F27K/S52I/S55V", "mean, log10 nM": "nd", "replicates with signal": "0 of 3", "empty controls": "0 of 9"}
{"changes": "F27W/G103E", "mean, log10 nM": "nd", "replicates with signal": "0 of 3", "empty controls": "1 of 9"}
{"changes": "M34C/S52V/S55E", "mean, log10 nM": "4.51", "replicates with signal": "3 of 3", "empty controls": "7 of 9"}
{"changes": "A33S/S52E/G100E", "mean, log10 nM": "3.83", "replicates with signal": "1 of 3", "empty controls": "3 of 9"}
{"changes": "S52Y/V99Q/G102C", "mean, log10 nM": "4.79", "replicates with signal": "1 of 3", "empty controls": "1 of 9"}
{"changes": "F27I/M34H/H35F", "mean, log10 nM": "4.31", "replicates with signal": "3 of 3", "empty controls": "2 of 9"}

Excerpt, the final 2 entries:

| changes | mean, log10 nM | replicates with signal | empty controls |
|---|---|---|---|
| S52Y/V99Q/G102C | 4.79 | 1 of 3 | 1 of 9 |
| F27I/M34H/H35F | 4.31 | 3 of 3 | 2 of 9 |